Rows were chosen to be rich in hits. Some 1.2% of all compounds tested hit in one or more screens of this group.
N-glyco inh: increase of ERlucT glycosylation luciferase signal, primary screen, N-linked glycosylation inhibitor project, D54 ERlucT cells, luminescence, set 2. 0.23% of 360,000 active. reporter increase, % at 12.5 µM. D54 ERlucT glycosylation luciferase reporter, 24 h; percent of 100 nM tunicamycin response;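 active = mean luciferase reporter signal, scaled so untreated is 0 and the glycosylation-blocking control 100, at or above a set limit in every replicate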;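 also: luciferase carries N-glycosylation sites so blocking glycosylation raises the light; 0% = median of neutral control wells and 100% = median of 100 nM tunicamycin wells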
miR122 inh: miR-122 Renilla sensor signal increase in Huh7, primary screen, miR-122 inhibitor project, cell-based, single point, plate reader. Huh7 miR-122 Renilla luciferase sensor, 48 h; neutral wells = 0, positive control = 100. activation (reporter increase), % at 12.5 µM. 0.3% of 340,000 active. AID 602342, 2012;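 active = mean replicate activation score at least 90 and every replicate individually at or above 90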;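 also: higher luciferase means less miR-122 activity so hits act as miR-122 inhibitors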
Cneo AK release: Cryptococcus neoformans cell lysis inducers, primary screen, AK release luminescence, single concentration | C. neoformans lysis, adenylate kinase release luminescence, 4 h; normalised: neutral wells 0, clomiphene wells 100 | lysis activity, % at 15 µM | 0.2% of 360,000 active;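 active = mean lysis activity across replicates of at least 80%, whatever share of replicates individually reach that level; inactive = mean lysis activity below 80%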
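Material: C. neoformans cells; Schedule: 4 h static compound exposure, 37 °C, read 1 h post-reagent; Measured by: adenylate kinase release luminescence; Read-out: signal increase indicating cell lysis; Controls: Clomiphene as positive lysis control.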
C2C12 statin: suppressors of statin myotoxicity in C2C12 myotubes, primary screen, cell-based, single point, plate reader. 0.78% of 330,000 active. AID 602340, 2012. C2C12 myotubes + simvastatin, ATP luminescence, 48 h; scaled: DMSO 0, geranylgeraniol control 100. rescue of ATP level, % at 7.49 µM;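 active = mean ATP rescue above about 67%, or every replicate alone reaching that limit, limit read from the data, passing the limit was not always enough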;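 also: myotubes were challenged with 10 µM simvastatin during compound exposure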
Yeast UUG start: alters start codon recognition fidelity in yeast. S. cerevisiae UUG-firefly luciferase reporter, luminescence/redox ratio. 350,000 tested, 0.13% active. activity score, % at 18.7 µM. AID 602363;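 active means replicate mean at a twofold rise or more, about +100% in these data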;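 further: firefly luciferase made from a UUG start codon reports start codon fidelity; reporter light over untreated wells divided by growth signal over untreated wells; some hits fall short of that in this replicate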
* marks the source's active call; other numbers are inactive results; [ ] = remark or other dose.

Screening O=C(CCN1C(=O)C2CCCCC2C1=O)Nc1ccc(F)c(F)c1F (stereo not drawn) returned N-glyco inh -0.1, Cneo AK release -0.5 and Yeast UUG start -13.5.
For Cc1cc(C)nc(/N=C(\N)Nc2ccc(S(=O)(=O)O)cc2)n1 the results were N-glyco inh 0.7 and miR122 inh -5.2.
Cc1cc(C)nc(/N=C(\N)Nc2ccc(OCc3ccccc3)cc2)n1 was read as N-glyco inh 48.2*.
`Cc1cc(C)nc(/N=C(\N)Nc2ccc(CC(=O)OC(C)C)cc2)n1` gave N-glyco inh 48.4*, miR122 inh -1.8, Cneo AK release 0.4, C2C12 statin -6.6 and Yeast UUG start -13.0.
Screening Cc1cc(C)nc(/N=C(\N)Nc2ccc(OCCC(C)C)cc2)n1 returned N-glyco inh 47.9*, miR122 inh -7.6, Cneo AK release 9.8, C2C12 statin -39.6 and Yeast UUG start -8.4.
COc1ccc(N/C(N)=N/c2nc(C)cc(C)n2)cc1 was read as N-glyco inh 6.5, miR122 inh -3.7, Cneo AK release 8.7, C2C12 statin 12.1 and Yeast UUG start -13.6.
Screening COCC(=O)N1[C@H](CO)[C@H]2c3ccccc3N(C(=O)c3ccncc3)C[C@H]21 returned miR122 inh 11.5[16.7 µM], Cneo AK release 0.9, C2C12 statin -9.9 and Yeast UUG start -18.9.
For O=C(O)c1ccc(C(=O)c2ccc3c(c2)C(=O)N(Cc2ccco2)C3=O)cc1 the results were N-glyco inh -1.1, miR122 inh -5.1, Cneo AK release -1.7, C2C12 statin 110.1* and Yeast UUG start 0.0.
`COc1ccc(NC(=O)N(C)C[C@@H]2Oc3ccc(NC(=O)c4ccncc4)cc3C(=O)N([C@@H](C)CO)C[C@H]2C)cc1` gave miR122 inh 3.3[16.7 µM], Cneo AK release -0.3, C2C12 statin -17.3 and Yeast UUG start -3.7.
`C[C@H]1CN([C@@H](C)CO)C(=O)c2cc(NS(=O)(=O)c3cccs3)ccc2O[C@H]1CN(C)S(=O)(=O)c1ccccc1` gave miR122 inh 1.8[16.7 µM], Cneo AK release -0.6, C2C12 statin 16.5 and Yeast UUG start 12.8.
Screening O=C(CC1C(=O)NCCN1C(=O)c1ccc([N+](=O)[O-])cc1)Nc1ccc(F)cc1 (stereo not drawn) returned N-glyco inh 0.3, miR122 inh -5.7, Cneo AK release -1.3, C2C12 statin 100.7* and Yeast UUG start -22.9.
For COc1ccc(NC(=O)CC2C(=O)NCCN2C(=O)c2ccc(Cl)cc2)cc1 (stereo not drawn) the results were N-glyco inh 0.6, miR122 inh -0.5, Cneo AK release -0.9, C2C12 statin 100.6* and Yeast UUG start -12.6.
Screening Cc1ccc(NC(=O)CC2C(=O)NCCN2C(=O)c2ccc(F)cc2)cc1 (stereo not drawn) returned miR122 inh -4.6, Cneo AK release -1.0 and Yeast UUG start 0.5.
`CCCC(=O)Nc1ccc2c(c1)C(=O)N(C)[C@H]1CC[C@H](CC(=O)NCC3CC3)O[C@@H]1CO2` gave miR122 inh 4.4[16.7 µM], Cneo AK release -4.7, C2C12 statin 15.9 and Yeast UUG start 15.8.
For Cc1csc(SCC(=O)Nc2cccc(S(=O)(=O)N3CCCC3)c2)n1 the results were N-glyco inh 1.6, miR122 inh -2.9, Cneo AK release 0.6, C2C12 statin 135.8* and Yeast UUG start -19.9.
For CO[C@H]1CN(C)C(=O)c2ccc(NC(=O)NC(C)C)cc2OC[C@@H](C)NC[C@H]1C the results were miR122 inh 12.4[16.7 µM], Cneo AK release 82.4*, C2C12 statin 10.0 and Yeast UUG start -1.9.
For CO[C@@H]1CN(C)C(=O)c2ccc(NC(=O)NC(C)C)cc2OC[C@H](C)NC[C@@H]1C the results were miR122 inh 54.1[16.7 µM], Cneo AK release 81.9*, C2C12 statin -6.6 and Yeast UUG start 22.9.
`COc1ccc(CN(C)C[C@H]2OCCCC[C@H](C)Oc3ccc(NC(=O)Nc4ccc(F)cc4)cc3C(=O)N([C@@H](C)CO)C[C@@H]2C)cc1` gave miR122 inh -1.9[16.7 µM], Cneo AK release 8.2, C2C12 statin -342.8 and Yeast UUG start 8.5.
For C[C@H]1CCCCO[C@H](CN(C)C(=O)c2ccncc2)[C@@H](C)CN([C@@H](C)CO)C(=O)c2cc(NC(=O)c3ccccc3)ccc2O1 the results were miR122 inh 2.3[16.7 µM] and Cneo AK release -2.9.
Screening Cc1ccc(/C=C2/Sc3ccccc3N(CC(=O)NCC3CCCO3)C2=O)cc1 (stereo not drawn) returned N-glyco inh -2.9, miR122 inh -3.2, Cneo AK release -3.4, C2C12 statin 25.0 and Yeast UUG start -18.1.

In the list so far, 2 have two or more sulfur atoms:
`C[C@H]1CN([C@@H](C)CO)C(=O)c2cc(NS(=O)(=O)c3cccs3)ccc2O[C@H]1CN(C)S(=O)(=O)c1ccccc1` gave miR122 inh 1.8[16.7 µM], Cneo AK release -0.6, C2C12 statin 16.5 and Yeast UUG start 12.8.
For Cc1csc(SCC(=O)Nc2cccc(S(=O)(=O)N3CCCC3)c2)n1 the results were N-glyco inh 1.6, miR122 inh -2.9, Cneo AK release 0.6, C2C12 statin 135.8* and Yeast UUG start -19.9.

An excerpt from above in order of SMILES length, lowest first:
For Cc1csc(SCC(=O)Nc2cccc(S(=O)(=O)N3CCCC3)c2)n1 the results were N-glyco inh 1.6, miR122 inh -2.9, Cneo AK release 0.6, C2C12 statin 135.8* and Yeast UUG start -19.9.
`Cc1cc(C)nc(/N=C(\N)Nc2ccc(CC(=O)OC(C)C)cc2)n1` gave N-glyco inh 48.4*, miR122 inh -1.8, Cneo AK release 0.4, C2C12 statin -6.6 and Yeast UUG start -13.0.
`COc1ccc(NC(=O)N(C)C[C@@H]2Oc3ccc(NC(=O)c4ccncc4)cc3C(=O)N([C@@H](C)CO)C[C@H]2C)cc1` gave miR122 inh 3.3[16.7 µM], Cneo AK release -0.3, C2C12 statin -17.3 and Yeast UUG start -3.7.

(more compounds)
Cc1cc(/C=C2\Sc3ccccc3N2C)cc(C)[n+]1CC1CCCO1 (stereo not drawn) was read as N-glyco inh 37.5* and miR122 inh -15.3.
`CN(C)CCCNC(=O)C[C@H]1CC[C@@H](NS(=O)(=O)c2ccc(F)cc2)[C@@H](CO)O1` gave Cneo AK release 73.4, C2C12 statin -3.2 and Yeast UUG start -7.5.
Cc1ccc(S(=O)(=O)Nc2ccc3c(c2)CC(=O)N([C@H](C)CO)C[C@@H](C)[C@@H](CN(C)S(=O)(=O)c2cccs2)O3)cc1 was read as miR122 inh -5.3[16.7 µM], Cneo AK release 4.1, C2C12 statin 18.9 and Yeast UUG start -2.0.
`COc1ccc(NS(=O)(=O)c2cc(NC(=O)c3sccc3C)ccc2N2CCOCC2)cc1` gave N-glyco inh 14.1, miR122 inh 187.7*, Cneo AK release -6.2, C2C12 statin 1.5 and Yeast UUG start -24.0.
`COc1ccc(NS(=O)(=O)c2cc(NC(=O)c3ccccc3)ccc2N2CCOCC2)cc1` gave N-glyco inh 2.9, miR122 inh 6.4, Cneo AK release 0.3, C2C12 statin 7.7 and Yeast UUG start 0.6.
Screening COc1cc(S(=O)(=O)Nc2ccccc2N2CCCCC2)ccc1NC(C)=O returned N-glyco inh 2.2, miR122 inh 111.3*, Cneo AK release -0.8, C2C12 statin -40.0 and Yeast UUG start -7.2.
For COc1ccccc1NS(=O)(=O)c1cc(NC(=O)c2sccc2C)ccc1N1CCOCC1 the results were N-glyco inh -4.6, miR122 inh 84.3, Cneo AK release 2.5, C2C12 statin 7.4 and Yeast UUG start -14.7.
COc1ccccc1NS(=O)(=O)c1cc(NC(=O)c2sccc2C)ccc1N1CCCC1 was read as N-glyco inh -6.5, miR122 inh 173.3* and C2C12 statin 13.7.
Screening COc1ccccc1NS(=O)(=O)c1cc(NC(=O)Nc2ccccc2)ccc1N1CCCCC1 returned N-glyco inh -11.4, miR122 inh 289.0*, Cneo AK release -1.1 and Yeast UUG start -2.4.
